# For some of these results: The strong results were mostly taken out for another list; the other results follow. This is a selection; strong and weak results do not stand in their true shares.
# The chains behind the UniProt entries cited, without tags or fusion partners. Where a name states a change or a piece, a line headed by the entry shows the natural chain unless it says otherwise.
# UniProt Q9UEE5: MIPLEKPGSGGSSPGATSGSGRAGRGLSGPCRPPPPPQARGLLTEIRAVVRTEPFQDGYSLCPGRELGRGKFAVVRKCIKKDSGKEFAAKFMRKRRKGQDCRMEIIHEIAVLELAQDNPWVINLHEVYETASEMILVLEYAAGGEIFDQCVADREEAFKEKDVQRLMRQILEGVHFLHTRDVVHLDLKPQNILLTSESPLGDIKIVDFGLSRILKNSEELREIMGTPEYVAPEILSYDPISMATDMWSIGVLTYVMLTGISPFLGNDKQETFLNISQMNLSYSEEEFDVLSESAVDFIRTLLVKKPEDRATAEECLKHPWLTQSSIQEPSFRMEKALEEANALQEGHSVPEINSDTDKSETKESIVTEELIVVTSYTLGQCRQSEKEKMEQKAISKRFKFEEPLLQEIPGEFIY
# UniProt P54753: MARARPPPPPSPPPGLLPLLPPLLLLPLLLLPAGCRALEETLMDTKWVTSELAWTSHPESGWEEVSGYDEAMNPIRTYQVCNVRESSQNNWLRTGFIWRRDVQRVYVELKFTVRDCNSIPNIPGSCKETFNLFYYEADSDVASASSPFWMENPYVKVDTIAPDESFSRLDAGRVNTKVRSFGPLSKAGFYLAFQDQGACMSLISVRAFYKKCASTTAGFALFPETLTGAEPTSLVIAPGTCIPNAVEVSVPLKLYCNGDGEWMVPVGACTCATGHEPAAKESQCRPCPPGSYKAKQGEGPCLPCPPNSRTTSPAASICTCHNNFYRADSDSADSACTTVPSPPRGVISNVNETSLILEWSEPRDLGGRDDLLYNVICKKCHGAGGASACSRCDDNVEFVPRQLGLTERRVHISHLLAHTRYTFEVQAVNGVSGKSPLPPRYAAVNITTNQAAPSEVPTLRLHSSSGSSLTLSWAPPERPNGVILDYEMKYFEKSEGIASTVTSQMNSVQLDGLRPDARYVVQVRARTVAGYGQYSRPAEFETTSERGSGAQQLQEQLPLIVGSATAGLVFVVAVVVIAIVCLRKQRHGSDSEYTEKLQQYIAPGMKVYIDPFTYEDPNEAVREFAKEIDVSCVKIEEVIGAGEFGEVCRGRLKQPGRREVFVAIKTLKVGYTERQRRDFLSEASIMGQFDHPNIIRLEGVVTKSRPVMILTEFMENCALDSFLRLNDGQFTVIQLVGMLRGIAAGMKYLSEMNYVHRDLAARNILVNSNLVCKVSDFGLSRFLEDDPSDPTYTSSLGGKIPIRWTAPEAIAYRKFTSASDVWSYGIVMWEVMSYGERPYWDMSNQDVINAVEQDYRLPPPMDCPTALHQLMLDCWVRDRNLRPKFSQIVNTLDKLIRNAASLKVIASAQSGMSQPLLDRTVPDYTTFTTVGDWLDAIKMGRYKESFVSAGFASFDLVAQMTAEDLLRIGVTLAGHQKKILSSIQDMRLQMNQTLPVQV
# UniProt P16591: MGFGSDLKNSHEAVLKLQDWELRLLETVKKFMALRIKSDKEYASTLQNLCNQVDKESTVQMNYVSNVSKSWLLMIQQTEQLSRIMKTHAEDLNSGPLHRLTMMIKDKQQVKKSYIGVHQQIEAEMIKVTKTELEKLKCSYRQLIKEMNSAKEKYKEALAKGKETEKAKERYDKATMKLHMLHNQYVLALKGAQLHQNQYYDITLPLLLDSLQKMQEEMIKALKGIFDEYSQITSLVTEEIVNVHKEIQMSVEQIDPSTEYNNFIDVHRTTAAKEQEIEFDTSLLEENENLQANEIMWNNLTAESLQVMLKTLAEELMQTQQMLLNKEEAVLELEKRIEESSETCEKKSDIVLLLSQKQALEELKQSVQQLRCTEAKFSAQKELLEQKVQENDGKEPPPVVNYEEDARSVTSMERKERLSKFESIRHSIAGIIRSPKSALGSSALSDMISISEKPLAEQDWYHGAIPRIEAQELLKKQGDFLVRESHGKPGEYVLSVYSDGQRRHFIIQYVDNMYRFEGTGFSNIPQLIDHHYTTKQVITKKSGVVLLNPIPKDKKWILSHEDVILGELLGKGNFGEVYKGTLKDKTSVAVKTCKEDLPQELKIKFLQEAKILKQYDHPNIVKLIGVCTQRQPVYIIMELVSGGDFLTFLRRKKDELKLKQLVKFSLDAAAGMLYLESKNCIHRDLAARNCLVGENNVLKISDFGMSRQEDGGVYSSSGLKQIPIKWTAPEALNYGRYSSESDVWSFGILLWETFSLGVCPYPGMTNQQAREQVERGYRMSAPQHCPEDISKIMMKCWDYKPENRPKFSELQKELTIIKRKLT
# UniProt Q9H422: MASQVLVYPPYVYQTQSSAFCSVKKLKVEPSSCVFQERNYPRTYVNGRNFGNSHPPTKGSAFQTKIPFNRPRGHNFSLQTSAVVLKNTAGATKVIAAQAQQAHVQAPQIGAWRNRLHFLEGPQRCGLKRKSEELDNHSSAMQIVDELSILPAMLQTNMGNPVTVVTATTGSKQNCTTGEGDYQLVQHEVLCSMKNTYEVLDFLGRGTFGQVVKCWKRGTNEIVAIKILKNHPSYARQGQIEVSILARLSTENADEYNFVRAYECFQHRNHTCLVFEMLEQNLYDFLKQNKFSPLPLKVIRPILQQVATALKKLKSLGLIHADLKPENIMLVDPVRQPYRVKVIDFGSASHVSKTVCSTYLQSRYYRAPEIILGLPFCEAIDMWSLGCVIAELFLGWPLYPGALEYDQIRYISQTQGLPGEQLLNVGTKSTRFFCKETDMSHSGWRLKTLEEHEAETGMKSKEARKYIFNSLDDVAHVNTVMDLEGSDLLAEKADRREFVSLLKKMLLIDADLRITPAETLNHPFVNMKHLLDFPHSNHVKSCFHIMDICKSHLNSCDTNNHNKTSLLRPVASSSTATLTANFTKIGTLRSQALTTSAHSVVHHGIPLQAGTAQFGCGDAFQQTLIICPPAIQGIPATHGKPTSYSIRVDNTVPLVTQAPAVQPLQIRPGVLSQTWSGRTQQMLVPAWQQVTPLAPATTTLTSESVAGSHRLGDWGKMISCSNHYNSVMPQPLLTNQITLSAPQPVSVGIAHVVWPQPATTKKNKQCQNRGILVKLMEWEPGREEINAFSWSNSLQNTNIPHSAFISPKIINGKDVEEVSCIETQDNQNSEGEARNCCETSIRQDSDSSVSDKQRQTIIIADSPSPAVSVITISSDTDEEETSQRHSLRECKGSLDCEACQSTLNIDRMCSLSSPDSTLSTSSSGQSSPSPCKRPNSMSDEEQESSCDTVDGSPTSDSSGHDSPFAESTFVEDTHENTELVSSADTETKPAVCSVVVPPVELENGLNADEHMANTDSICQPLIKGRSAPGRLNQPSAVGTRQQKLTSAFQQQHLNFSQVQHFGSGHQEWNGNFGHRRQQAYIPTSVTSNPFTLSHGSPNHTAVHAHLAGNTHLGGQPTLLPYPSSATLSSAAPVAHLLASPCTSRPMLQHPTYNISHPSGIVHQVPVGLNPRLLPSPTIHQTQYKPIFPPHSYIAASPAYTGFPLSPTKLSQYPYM
# UniProt Q00535, whole entry, looked up: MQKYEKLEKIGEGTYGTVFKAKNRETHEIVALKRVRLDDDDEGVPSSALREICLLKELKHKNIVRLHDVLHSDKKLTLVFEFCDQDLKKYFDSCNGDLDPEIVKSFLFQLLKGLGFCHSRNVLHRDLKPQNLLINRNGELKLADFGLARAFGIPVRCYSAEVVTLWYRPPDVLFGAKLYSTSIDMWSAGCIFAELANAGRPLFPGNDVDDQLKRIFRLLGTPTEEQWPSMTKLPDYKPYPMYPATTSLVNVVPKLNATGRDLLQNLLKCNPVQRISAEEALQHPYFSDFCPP
# UniProt Q15078: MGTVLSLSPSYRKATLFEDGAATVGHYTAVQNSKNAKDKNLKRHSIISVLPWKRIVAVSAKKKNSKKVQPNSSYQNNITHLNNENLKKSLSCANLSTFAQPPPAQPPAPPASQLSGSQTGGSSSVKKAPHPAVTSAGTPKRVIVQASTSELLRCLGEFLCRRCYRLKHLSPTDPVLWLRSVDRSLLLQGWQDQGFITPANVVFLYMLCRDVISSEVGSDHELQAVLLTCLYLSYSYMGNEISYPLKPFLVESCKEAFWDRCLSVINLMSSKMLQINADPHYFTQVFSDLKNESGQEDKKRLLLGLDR
# UniProt Q8N4C8: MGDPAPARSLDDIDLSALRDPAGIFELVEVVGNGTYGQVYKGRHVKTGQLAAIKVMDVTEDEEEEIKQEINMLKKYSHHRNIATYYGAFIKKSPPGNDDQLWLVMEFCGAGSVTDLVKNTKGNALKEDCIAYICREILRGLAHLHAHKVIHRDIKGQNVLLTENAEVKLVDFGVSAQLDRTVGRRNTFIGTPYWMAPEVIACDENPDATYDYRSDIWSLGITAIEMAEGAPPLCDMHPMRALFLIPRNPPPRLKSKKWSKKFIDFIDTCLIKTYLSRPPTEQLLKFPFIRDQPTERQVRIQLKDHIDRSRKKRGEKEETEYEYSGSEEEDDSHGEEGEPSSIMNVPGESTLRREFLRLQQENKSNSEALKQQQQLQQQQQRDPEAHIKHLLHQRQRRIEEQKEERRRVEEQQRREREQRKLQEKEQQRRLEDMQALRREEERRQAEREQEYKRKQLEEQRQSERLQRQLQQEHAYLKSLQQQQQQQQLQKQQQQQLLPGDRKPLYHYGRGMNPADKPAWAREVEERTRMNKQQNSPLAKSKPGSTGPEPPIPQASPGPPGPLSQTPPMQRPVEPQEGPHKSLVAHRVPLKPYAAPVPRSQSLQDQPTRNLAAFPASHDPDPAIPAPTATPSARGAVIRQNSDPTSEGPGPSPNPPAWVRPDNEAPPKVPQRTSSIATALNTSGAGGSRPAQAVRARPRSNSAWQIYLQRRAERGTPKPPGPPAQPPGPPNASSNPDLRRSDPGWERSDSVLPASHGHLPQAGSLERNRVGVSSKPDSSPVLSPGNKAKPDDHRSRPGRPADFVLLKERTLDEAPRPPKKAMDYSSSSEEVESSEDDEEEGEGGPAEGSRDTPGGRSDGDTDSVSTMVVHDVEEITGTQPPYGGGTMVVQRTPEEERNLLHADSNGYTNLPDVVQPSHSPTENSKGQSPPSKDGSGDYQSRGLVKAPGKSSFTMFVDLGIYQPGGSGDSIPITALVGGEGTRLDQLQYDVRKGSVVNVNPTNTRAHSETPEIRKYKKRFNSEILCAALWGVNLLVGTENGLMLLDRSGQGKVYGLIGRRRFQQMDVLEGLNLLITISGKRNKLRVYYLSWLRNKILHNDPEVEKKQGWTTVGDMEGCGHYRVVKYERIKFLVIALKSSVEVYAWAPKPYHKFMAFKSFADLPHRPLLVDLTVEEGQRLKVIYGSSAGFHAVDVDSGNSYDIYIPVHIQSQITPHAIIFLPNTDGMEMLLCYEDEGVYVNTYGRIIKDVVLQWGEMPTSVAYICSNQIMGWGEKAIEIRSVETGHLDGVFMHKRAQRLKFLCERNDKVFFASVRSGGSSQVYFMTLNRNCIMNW
# UniProt P09619, whole entry: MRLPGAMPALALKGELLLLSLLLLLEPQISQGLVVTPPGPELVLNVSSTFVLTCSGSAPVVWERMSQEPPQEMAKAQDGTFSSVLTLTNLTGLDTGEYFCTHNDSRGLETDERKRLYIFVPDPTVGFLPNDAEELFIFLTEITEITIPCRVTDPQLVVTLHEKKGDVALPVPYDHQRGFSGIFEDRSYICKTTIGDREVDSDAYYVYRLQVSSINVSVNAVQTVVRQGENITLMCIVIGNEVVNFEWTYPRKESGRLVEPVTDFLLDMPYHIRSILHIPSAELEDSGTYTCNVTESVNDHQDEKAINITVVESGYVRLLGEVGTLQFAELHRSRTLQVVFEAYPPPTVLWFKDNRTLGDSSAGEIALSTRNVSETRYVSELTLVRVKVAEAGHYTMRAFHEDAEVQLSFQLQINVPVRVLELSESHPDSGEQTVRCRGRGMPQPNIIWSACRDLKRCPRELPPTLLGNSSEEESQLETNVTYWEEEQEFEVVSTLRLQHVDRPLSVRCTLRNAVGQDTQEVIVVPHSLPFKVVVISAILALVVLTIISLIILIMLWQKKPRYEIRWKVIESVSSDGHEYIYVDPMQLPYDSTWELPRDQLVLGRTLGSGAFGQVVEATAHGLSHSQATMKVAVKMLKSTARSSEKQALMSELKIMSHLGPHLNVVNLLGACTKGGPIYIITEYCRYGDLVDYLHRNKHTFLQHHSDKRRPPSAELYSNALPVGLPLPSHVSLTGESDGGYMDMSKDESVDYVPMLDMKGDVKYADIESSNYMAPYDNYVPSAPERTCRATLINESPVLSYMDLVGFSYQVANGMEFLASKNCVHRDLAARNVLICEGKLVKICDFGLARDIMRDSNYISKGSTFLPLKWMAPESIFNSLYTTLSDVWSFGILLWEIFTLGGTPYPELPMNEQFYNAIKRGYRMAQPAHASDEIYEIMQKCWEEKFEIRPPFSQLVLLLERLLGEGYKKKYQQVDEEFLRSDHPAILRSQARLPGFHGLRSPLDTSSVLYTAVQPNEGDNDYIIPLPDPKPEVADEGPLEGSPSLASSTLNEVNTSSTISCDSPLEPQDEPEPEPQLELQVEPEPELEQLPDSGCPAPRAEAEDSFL
# Tests used:
# [1] = target: Serine/threonine-protein kinase 17A (Homo sapiens) (UniProt Q9UEE5); conditions: at 1 µM
# [2] = target: Ephrin type-B receptor 3 (Homo sapiens) (UniProt P54753); conditions: at 10 µM
# [3] = target: Tyrosine-protein kinase Fer (Homo sapiens) (UniProt P16591); conditions: at 1 µM
# [4] = target: Homeodomain-interacting protein kinase 3 (Homo sapiens) (UniProt Q9H422); conditions: at 1 µM
# [5] = target: Cyclin-dependent kinase 5/CDK5 activator 1 (Homo sapiens) (UniProt Q00535+Q15078); conditions: at 1 µM
# [6] = target: Misshapen-like kinase 1 (Homo sapiens) (UniProt Q8N4C8); conditions: at 1 µM
# [7] = target: Platelet-derived growth factor receptor beta (Homo sapiens) (UniProt P09619); conditions: at 1 µM
Compound,residual activity [1],residual activity [2],residual activity [3],residual activity [4],residual activity [5],residual activity [6],residual activity [7]
CC(C)n1cnc2/c(=N/c3cccc(Cl)c3)nc(NCCO)[nH]c21,106%,101%,94%,97%,–,–,–
O=C(O)c1ccc2c3c1cccc3c(=O)n1c3ccccc3nc21,–,–,–,–,108%,90%,111%

# — ChEMBL document CHEMBL2218924, “A broad activity screen in support of a chemogenomic map for kinase signalling research and drug discovery” (Biochem J, 2013)
